This is an account of results in ChEMBL document CHEMBL1129520 (J Med Chem, 1996).

Sequences of proteins named here, by UniProt entry; tags and fusion partners are left off. A change or cut given only in a name is not applied to a line headed by its entry.
UniProt Q9QYN8: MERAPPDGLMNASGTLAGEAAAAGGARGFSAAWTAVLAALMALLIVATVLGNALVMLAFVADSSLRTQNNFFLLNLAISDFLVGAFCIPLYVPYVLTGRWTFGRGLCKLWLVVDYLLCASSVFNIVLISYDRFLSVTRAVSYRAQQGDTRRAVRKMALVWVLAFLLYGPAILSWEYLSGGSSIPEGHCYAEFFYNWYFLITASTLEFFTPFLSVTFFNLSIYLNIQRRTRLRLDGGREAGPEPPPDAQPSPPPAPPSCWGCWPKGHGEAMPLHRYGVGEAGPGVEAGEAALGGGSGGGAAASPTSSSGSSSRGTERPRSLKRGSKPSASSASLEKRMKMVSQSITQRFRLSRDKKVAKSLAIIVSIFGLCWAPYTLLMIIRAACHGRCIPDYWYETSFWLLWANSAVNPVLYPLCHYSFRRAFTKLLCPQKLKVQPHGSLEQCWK

Each structure is given as a SMILES string.

The assay addresses Histamine H3 receptor (Rattus norvegicus, UniProt Q9QYN8). The assay can be described thus: Binding affinity towards Histamine H3 receptor on synaptosomes from rat cerebral cortex. It counts as subcellular, Brain. In short, it runs like this: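 Rat cerebral cortex homogenized in ice-cold 50 mM Na2HPO4/KH2PO4, pH 7.5, then washed membranes after two differential centrifugations. Incubated 60 min at 25 °C with [3H]-(R)-α-methylhistamine and drugs at various concentrations. Stopped by ice-cold dilution, vacuum-filtered through glass-fibre filters, scintillation counted. Nonspecific binding defined with 3 µM thioperamide.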

Consider `Cc1[nH]cnc1CSCCNC(=N)NCCCc1c[nH]cn1` [IMPROMIDINE], for which affinity was put at a Ki of 0.0398 µM.
